The results in this text go back to PubChem BioAssay AID1920062 (Sanford-Burnham Center for Chemical Genomics, 2024).

The chains behind the UniProt entries cited, without tags or fusion partners.
UniProt P20594, whole entry: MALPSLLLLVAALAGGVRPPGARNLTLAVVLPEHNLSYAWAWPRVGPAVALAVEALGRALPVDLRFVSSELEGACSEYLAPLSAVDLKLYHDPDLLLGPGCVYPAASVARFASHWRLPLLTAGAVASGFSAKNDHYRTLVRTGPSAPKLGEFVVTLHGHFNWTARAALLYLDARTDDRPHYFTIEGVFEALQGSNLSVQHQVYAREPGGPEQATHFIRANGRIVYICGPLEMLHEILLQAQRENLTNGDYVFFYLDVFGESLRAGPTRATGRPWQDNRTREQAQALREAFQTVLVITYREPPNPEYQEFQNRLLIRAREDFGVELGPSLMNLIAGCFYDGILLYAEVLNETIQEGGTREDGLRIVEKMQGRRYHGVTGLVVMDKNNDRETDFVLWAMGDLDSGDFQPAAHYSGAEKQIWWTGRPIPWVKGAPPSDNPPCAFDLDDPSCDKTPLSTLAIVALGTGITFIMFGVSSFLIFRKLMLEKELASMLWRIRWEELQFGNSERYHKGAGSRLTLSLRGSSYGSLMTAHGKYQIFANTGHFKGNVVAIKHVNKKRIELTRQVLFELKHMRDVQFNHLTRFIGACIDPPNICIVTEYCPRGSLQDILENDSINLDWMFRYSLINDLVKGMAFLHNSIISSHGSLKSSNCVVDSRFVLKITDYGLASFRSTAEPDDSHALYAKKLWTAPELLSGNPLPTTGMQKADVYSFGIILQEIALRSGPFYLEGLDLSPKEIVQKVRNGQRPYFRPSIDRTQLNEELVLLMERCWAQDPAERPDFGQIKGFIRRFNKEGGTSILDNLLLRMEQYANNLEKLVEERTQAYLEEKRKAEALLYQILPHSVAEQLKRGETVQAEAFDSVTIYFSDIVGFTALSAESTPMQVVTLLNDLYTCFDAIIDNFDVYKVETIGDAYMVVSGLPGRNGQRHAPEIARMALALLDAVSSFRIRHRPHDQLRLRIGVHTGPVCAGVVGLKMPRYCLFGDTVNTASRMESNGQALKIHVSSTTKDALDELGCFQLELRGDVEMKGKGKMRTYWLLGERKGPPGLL

The list shows a part of the results, in another mix than the full data. Active and inactive are the calls of the source.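 Rule for the calls: active = activation at 10 µM reaching about 35% in either raw or pattern-adjusted values (limit read from the data); inactive = the rest.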

The assay has as its target Atrial natriuretic peptide receptor 2 (Homo sapiens) (UniProt P20594). In words: human GC-B receptor activators, primary screen, HEK293 GC-B cells, cGMP TR-FRET, EC30 CNP (AID 1920062). The conditions noted are these: at 10 µM, hits give high values, 0% at EC30 CNP, 100% saturating CNP.
Consider `COc1ccccc1-c1ccccn1.O=[N+]([O-])c1cc([N+](=O)[O-])c(O)c([N+](=O)[O-])c1`, for which the activation is inactive: -1.77%.
In the case of `O=[N+]([O-])c1ccc2c(c1)C=Nc1ccccc1O2` it was inactive: -5.33%; in that of `Cc1cccc(C)c1OP(C)(N)=O` (stereo unspecified), inactive: 0.25%; in that of `CC(C)(C)c1ccc(OP(C)(=O)Nc2ccc(SC(F)(F)F)cc2)cc1` (stereo unspecified), inactive: 2.22%.
For `O=[N+]([O-])c1cc([N+](=O)[O-])c(Nc2cccnc2)c([N+](=O)[O-])c1`, the activation is inactive: 14.5%.
In the case of `Cc1cc(C)cc(OP(C)(N)=O)c1` (stereo unspecified) it was inactive: -1.26%.
In the case of `COc1ccc(OP(C)(=O)Nc2cccc(F)c2)cc1` (stereo unspecified) it was inactive: 1.08%; in that of `COc1ccccc1OP(C)(=O)Nc1cc(Cl)ccc1C` (stereo unspecified), inactive: -7.67%; in that of `Cc1ccc(NP(C)(=O)Oc2ccccc2)c(C)c1` (stereo unspecified), inactive: -5.62%.
In the case of `COc1ccccc1OP(C)(=O)Nc1ccc(C)cc1` (stereo unspecified) it was inactive: -0.43%; in that of `CCOC(=O)c1ccc(NP(C)(=O)Oc2ccccc2)cc1` (stereo unspecified), inactive: -3.41%.
For `CP(=O)(Nc1ccccc1Br)Oc1ccccc1` (stereo unspecified), the activation was inactive: 5.16%.
In the case of `COc1ccccc1OP(C)(=O)Nc1ccccc1` (stereo unspecified) it was inactive: 2.48%; in that of `CP(=S)(Nn1cnnc1)Oc1ccccc1` (stereo unspecified), inactive: 4.69%.
Take `Cc1cc(C)cc(OP(C)(=O)Nc2ccc(SC(F)(F)F)cc2)c1` (stereo unspecified): the activation was inactive: -0.8%.
Take `CP(=O)(NC(=O)Nc1ccccc1)Oc1ccccc1` (stereo unspecified): the activation was inactive: 2.29%.
In the case of `CCc1ccc(OP(C)(=O)N2CCN(c3ccc([N+](=O)[O-])cc3)CC2)cc1` (stereo unspecified) it was inactive: -4.04%; in that of `CP(=O)(Oc1ccccc1)OC(c1ccccc1)C(F)(F)F` (stereo unspecified), inactive: -2.6%; in that of `CP(=O)(Nc1ccc(SC(F)(F)F)cc1)Oc1ccc(Cl)cc1` (stereo unspecified), inactive: -0.61%.
Under `Cc1cccc(C)c1OP(C)(=O)Nc1ccc(SC(F)(F)F)cc1` (stereo unspecified) stands inactive: 1.87%; under `CP(=O)(Nc1ccccn1)Oc1ccc(Cl)cc1` (stereo unspecified), inactive: 8.11%.
In the case of `O=[N+]([O-])c1cc([N+](=O)[O-])c(O)c([N+](=O)[O-])c1.c1ccc(Oc2ccncc2)cc1` it was inactive: 4.07%; in that of `CCOC(=O)c1ccc(NP(C)(=O)Oc2ccc(OC)cc2)cc1` (stereo unspecified), inactive: 2.8%.
Consider `CCOP(C)(=S)SCC(=O)NC(C)C(=O)O` (stereo unspecified), for which the activation was inactive: -6%.
In the case of `CN(Cc1cccnc1)C(=O)COc1ccc(Cl)c(Cl)c1.O=[N+]([O-])c1cc([N+](=O)[O-])c(O)c([N+](=O)[O-])c1` it was inactive: 0.51%.
`O=[N+]([O-])c1cc([N+](=O)[O-])c(-n2nnc3ccccc32)c([N+](=O)[O-])c1`: the activation is inactive: -0.33%.
